Patent US7135295B1, “Detection of small molecules by use of a piezoelectric sensor” (dated 2006)

Tests used:
IgG TTDA 5B3-Ab = test: QCM displacement embodiment, IgG TTDA 5B3-Ab charged antigen monolayer
Text: The sensing member is mounted in the cell, the cell volume is filled with a solution, e.g. 0.01 M phosphate buffer, pH 7.4 comprising also 0.1 M NaCl (“NaCl-containing PBS”). The sensing member is allowed to equilibrate until a constant frequency of the crystal is observed.
The sensing surface in accordance with this embodiment, where the neutralizing agent is an antibody, comprises an antigen-antibody monolayer. Electrode 160 may be provided, a priori with antibodies bound thereon, although alternatively, the antibody may be bound to the sensing surface in situ. In the latter case, an antibody solution, e.g. 50 μl of a 1 mg/ml antibody solution is injected into the cell and permitted to incubate with the electrode for a time to allow binding, e.g. 15 minutes. Association of the antibody to the electrode can be monitored by the decrease in the resonance frequency of the crystal (see FIG. 9 and the accompanying description below). The cell may then be rinsed with several cell volumes of a solution, e.g. a buffer solution, propelled by means of peristaltic pump 176. The electrode is then allowed to calibrate until the resonance frequency remains constant for a period of time.
Samples may then be injected into the cells. Detachment of the antibody from the monolayer is evidenced by a frequency increase of the crystal (see exemplary FIG. 10 and the accompanying description below). After each positive sample the cell is flushed with a buffer solution and allowed to re-equilibrate to reach a constant frequency.
An antigen monolayer electrode was treated for 15 mins. with the Ab. […] A decrease of about Δf=−100 Hz was observed. The charged electrode was rinsed for 3 mins with the buffer solution and its resonance frequency was stabilized.
50 ml of stock solution of 2,4-DNT, prepared as described under 3.4 was injected into the cell to yield the desired concentration.
The electrode was then rinsed for three mins. with the buffer solution and its frequency was re-stabilized. A sample of 2,4-DNT was injected again into the cell to yield the sum concentration of 6.25 ng/ml. […] The electrode was rinsed again and its frequency was stabilized. A 2,4-DNT sample was injected into the cell to yield a concentration of 312 pgr/ml.
An electrode of a sensing member was charged with Ab in an identical manner to that described under 3.5.
A TNT stock solution was prepared similarly to the manner of preparation of the 2,4-DNT stock solution in Example 3.5. A 50 ml sample of the TNT stock solution was injected into the cell to yield a concentration of 6.25 pgr/ml in the cell. […] After rinsing the cell and stabilization of the crystal frequency, a second sample of TNT was injected to the cell, yielding a concentration of 62.5 pgr/ml^−1. […]

5B3 antibody = test: ELISA binding / inhibition assay of 5B3 antibody with haptens
Description: Spleen cells of a mouse with the highest titre of binding antibodies (and specificity to TNT, see for detection details below) were fused with the NSO, murine myeloma cell line as described before (Eshhar, Monoclonal antibody strategy and techniques. In: Hybridoma in Biotechnology and Medicine, Springer, T., ed. Plenum Press, p. 1, 1985). Briefly, 10^8 spleen cells were fused with 2×10^7 NSO myeloma cells using 41% PEG for 2 mins. at 37° C. Following removal of PEG by dilution and centrifugation, cells were resuspended in DMEM supplemented with 10% horse serum and HAT selective medium and distributed into 7 microculture plates. […] (See binding and inhibition assays (1.4 and 1.5 below). From 672 wells with hybridoma growth 32 scored positive for TNP-BSA binding. Six out of these were inhibited by 10^−5 M TNT, out of which a hybridoma designated 5B3 was selected. The TNT-specific hybridomas were cloned and subcloned for 2–3 cycles and used to prepare ascites fluid which served as the source for purified antibodies.
Regular ELISA has been used to determine anti-TNT antibody activity. […] Reaction was stopped when sufficient color had been developed by the addition of 50 μl of 0.2 M citric acid and the OD at 620 nm was determined in ELISA plate reader. […]

Structure (SMILES): Cc1c([N+](=O)[O-])cc([N+](=O)[O-])cc1[N+](=O)[O-]
- crystal frequency increase Δf (IgG TTDA 5B3-Ab; 6.25 pgr/ml (FIG. 13 curve a)): 7 Hz
- crystal frequency increase Δf (IgG TTDA 5B3-Ab; 6.25 pgr/ml, electrode recharged with Ab (FIG. 15)): 18 Hz
- crystal frequency increase Δf (IgG TTDA 5B3-Ab; 62.5 pgr/ml^−1, second sample (FIG. 13 curve b)): 16 Hz
- crystal frequency increase (IgG TTDA 5B3-Ab; micro-cell, 100 pgr/ml in the cell, after 3 mins (FIG. 22)): about 15 Hz
- blocking of 5B3 binding to either TNP or DNS antigen (5B3 antibody; ELISA inhibition): blocked by very low amounts
- inhibition of hybridoma supernatant binding to TNP-BSA (5B3 antibody; preincubation with 10^−5 M, hybridoma 5B3 among the six inhibited): inhibited

This is a selection: effects in other tests are not listed, and their absence says nothing.
